Literature values, collected in article PMC9867837 (Cancer letters, 2022).

By UniProt entry, the sequences of proteins in these tests, tags left out.
UniProt P40763, whole entry: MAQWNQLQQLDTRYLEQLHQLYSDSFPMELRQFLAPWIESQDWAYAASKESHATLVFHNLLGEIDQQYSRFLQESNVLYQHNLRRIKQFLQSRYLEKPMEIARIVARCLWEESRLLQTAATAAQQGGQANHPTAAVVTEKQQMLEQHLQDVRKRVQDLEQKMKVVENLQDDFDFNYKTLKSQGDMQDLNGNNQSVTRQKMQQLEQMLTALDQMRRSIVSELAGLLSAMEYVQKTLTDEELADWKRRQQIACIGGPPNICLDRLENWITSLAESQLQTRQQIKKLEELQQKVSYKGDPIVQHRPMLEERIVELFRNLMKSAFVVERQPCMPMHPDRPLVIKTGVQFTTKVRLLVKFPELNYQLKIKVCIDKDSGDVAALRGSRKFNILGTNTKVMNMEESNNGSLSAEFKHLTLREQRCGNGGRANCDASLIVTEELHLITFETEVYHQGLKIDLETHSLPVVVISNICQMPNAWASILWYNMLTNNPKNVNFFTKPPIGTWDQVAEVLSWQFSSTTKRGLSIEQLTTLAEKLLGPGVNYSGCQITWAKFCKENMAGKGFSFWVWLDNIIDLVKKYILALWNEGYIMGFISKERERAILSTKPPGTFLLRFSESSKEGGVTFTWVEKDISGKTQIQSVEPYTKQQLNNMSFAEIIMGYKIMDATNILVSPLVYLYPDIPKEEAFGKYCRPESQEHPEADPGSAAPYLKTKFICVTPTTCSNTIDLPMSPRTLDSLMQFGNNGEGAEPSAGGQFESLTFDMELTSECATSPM

Molecular target: SH2 domain of pure recombinant Stat3 (Homo sapiens, UniProt P40763)
Parameters: method as in PMID 12639546
Details: read-out: KD for binding to the SH2 domain; cited from earlier work

GpYLPQTV-NH2 (GYLPQTV; phospho-Tyr at position 2 of the peptide; C-terminal amide (NH2))
Kd: 150 nM
